The chains behind the UniProt entries cited, without tags or fusion partners.
UniProt Q86WV6, whole entry H232R: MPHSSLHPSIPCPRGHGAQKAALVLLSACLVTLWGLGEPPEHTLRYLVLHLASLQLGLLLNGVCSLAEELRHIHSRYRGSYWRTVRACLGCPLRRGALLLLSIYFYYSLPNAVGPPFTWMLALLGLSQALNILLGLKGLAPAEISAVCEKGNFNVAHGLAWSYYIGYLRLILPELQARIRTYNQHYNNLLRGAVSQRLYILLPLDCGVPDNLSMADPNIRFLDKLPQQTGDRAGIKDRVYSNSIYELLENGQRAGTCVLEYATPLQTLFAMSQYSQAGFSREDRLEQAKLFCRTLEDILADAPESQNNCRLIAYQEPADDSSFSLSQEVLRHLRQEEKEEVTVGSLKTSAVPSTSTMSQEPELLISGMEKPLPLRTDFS
UniProt Q86WV6, whole entry R71H/G230A/H232R/R293Q: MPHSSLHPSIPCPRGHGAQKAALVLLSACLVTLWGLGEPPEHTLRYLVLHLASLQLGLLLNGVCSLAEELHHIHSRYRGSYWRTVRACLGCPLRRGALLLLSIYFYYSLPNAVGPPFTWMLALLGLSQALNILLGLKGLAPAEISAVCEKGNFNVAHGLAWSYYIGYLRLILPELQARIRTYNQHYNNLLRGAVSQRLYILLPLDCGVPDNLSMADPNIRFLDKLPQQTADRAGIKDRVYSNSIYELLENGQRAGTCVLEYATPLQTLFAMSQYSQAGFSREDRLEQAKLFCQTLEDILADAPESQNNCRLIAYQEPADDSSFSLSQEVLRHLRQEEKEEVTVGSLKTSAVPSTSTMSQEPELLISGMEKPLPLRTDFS

According to patent US11773132B2, “Cyclic di-nucleotides as stimulator of interferon genes modulators” (Beijing Xuanyi PharmaSciences Co., Ltd., priority 2017, dated 2023):

Experiments:
Format in all cases: cell-based
[1] = target: T1, hSTING R232 (Homo sapiens, UniProt Q86WV6, H232R); experiment: 293T-Dual hSTING R232 cells, interferon-β expression (Quanti-Luc); settings: 293T-Dual hSTING R232 cell line, 24 h, read-out: IFNb EC50
T1 construct: host or cells: 293T-Dual hSTING R232 cells
Method: (§1) A test compound with a serial of dilution was prepared in complete medium, and 50 μL of the compound were added to the corresponding well, and incubated with the cells at 37° C. incubator for 24 hr.
To evaluate the effect on interferon-β expression, 20 μL of cell culture supernatant were transferred into a fresh 96-half area-well white plate, 30 μL of Quanti-Luc were added to each well, and luminescence was measured immediately with a luminometer. Four parameter logistic equation was used to calculate EC50 (Table 4).

[2] = target: T1, hSTING R232; experiment: 293T-Dual hSTING R232 cells, IRF activation (Quanti-Blue); settings: 293T-Dual hSTING R232 cell line, 24 h, OD 620 nm
Method: as §1
To determine the effect on interferon regulatory factor (IRF) activation, 20 μL of cell culture supernatant was transferred into a fresh 96-well plate, 150 μL of Quanti-Blue was added to each well and incubated at 37° C. for 25 min. OD at 620 nm was recorded, and EC50 was calculated with 4 parameter logistic equation.

[3] = target: T2, Human STING (Homo sapiens, UniProt Q86WV6, G230A/H232R/R293Q/R71H); experiment: EC50 in THP1-Dual cells, IRF3 reporter (QUANTI-Luc); settings: THP1 cell line, 24 h
T2 construct: host or cells: THP1-Dual cells (human monocytic reporter line)
Method: (§2) THP1-Dual cells (obtained from Invivogen) are maintained in RPM11640 medium with 100 µg/ml of Zeocin and 10 µg/ml of blasticidin at 37° C., 5% CO2, compounds were dissolved in sterile PBS (pH7.4) as 20 mM, 0.5×10^6 cells/ml of THP-1 Dual cells were incubated with indicated concentrations of a compound for 24 hours at 37° C., 5% CO2 incubator. QUANTI-Luc and QUANTI-Blue were prepared and used following the manufacturer's instructions. 10 ul of cell culture supernatant were mixed with QUANTI-Luc and immediately measured using Luminometer; 20 ul of supernatant were mixed with QUANTI-Blue, and incubated at 37° C. for 30 minutes, and read at OD620. EC50 was calculated using Prism with 4-parameter dose-response curve fitting (Table 3).

[4] = target: T2, Human STING; experiment: EC50 in THP1-Dual cells, NF-kB reporter (QUANTI-Blue); settings: ECs50 NF-kB, THP1 cell line, 24 h, OD620
Method: as §2

Structure (SMILES)	EC50 [1]	EC50 [2]	EC50 [3]	EC50 [4]
BP1(=O)OC[C@H]2O[C@@H](n3cnc4c(N)ncnc43)[C@H](F)C2OP(=O)(O)OC[C@H]2O[C@@H](n3cnc4c(N)ncnc43)[C@H](F)[C@@H]2O1 (single isomer, unassigned) [Compound E2]	1630 nM	1060 nM	800 nM	7960 nM
BP1(=O)OC[C@H]2O[C@@H](n3cnc4c(N)ncnc43)[C@H](F)C2OP(=O)(O)OC[C@H]2O[C@@H](n3cnc4c(N)ncnc43)[C@H](F)[C@@H]2O1 (single isomer, unassigned) [Compound E1]	700 nM	530 nM	480 nM	2550 nM
